Active and inactive are the calls of the source. The calls are words filed in the database; no cut-off is given here.
Experiments:
[1] = target: 5-hydroxytryptamine receptor 2A (Homo sapiens) (UniProt P28223); experiment: Antagonist activity at 5HT2A receptor (unknown origin); assay type: functional
[2] = target: 5-hydroxytryptamine receptor 2A (Homo sapiens) (UniProt P28223); experiment: Agonist activity at 5HT2A receptor (unknown origin); assay type: functional
[3] = target: T1, Probable G-protein coupled receptor 139 (Homo sapiens) (UniProt Q6DWJ6); experiment: Potency index, ratio of TAK-041 EC50 to test compound EC50 for agonist activity at human GPR139 transfected in CHO-K1 cells assessed as increase in calcium mobilization by FLIPR analysis; assay type: functional, cell-based; conditions: filed as agonist
T1 sequence (whole entry): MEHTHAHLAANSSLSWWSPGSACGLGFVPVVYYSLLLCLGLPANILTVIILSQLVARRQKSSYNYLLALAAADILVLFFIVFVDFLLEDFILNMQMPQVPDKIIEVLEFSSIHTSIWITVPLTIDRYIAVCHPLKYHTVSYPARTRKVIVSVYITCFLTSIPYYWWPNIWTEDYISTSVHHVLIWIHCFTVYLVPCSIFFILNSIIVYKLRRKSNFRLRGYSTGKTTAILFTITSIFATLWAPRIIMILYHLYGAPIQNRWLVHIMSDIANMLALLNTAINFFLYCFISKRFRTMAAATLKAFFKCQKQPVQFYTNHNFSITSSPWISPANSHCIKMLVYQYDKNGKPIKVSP

The chains behind the UniProt entries cited, without tags or fusion partners.
UniProt P28223, whole entry: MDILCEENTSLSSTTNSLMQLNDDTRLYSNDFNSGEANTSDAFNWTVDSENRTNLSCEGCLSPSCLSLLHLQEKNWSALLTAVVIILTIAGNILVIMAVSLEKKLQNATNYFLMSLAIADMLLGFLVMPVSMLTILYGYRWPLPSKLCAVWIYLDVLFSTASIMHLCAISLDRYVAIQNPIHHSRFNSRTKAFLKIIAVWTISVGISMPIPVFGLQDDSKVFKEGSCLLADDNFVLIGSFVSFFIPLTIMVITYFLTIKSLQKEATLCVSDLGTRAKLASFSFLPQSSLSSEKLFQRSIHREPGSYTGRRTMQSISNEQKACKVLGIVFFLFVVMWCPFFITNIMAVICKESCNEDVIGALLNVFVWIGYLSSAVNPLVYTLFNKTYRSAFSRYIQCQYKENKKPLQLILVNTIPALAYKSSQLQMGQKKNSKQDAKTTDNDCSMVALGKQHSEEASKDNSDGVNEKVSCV

Activity [1]	Activity [2]	Ratio EC50 [3]	Compound
inactive	inactive		C[C@H](NC(=O)Cn1ncc2sccc2c1=O)c1ccc(OC(F)(F)F)cc1
		7	C[C@H](NC(=O)Cn1ncc2sccc2c1=O)c1ccc(Cl)c(F)c1
inactive	inactive		C[C@H](NC(=O)Cn1ncc2cccn2c1=O)c1ccc(OC(F)(F)F)cc1

— ChEMBL document CHEMBL5370620, “Design and Synthesis of Novel GPR139 Agonists with Therapeutic Effects in Mouse Models of Social Interaction and Cognitive Impairment” (J Med Chem, 2023)
